Tested on: CD8+ T cells
Experiment: Reinvigoration of CD8+ T cells (GzmB expression)
Assay type: cell-based, mouse
Settings: after IL-2 treatment
Description: Live-cell fluorescence confocal microscopy. E0771 (1.5×10^3 cells/well) were plated on Geltrex-coated 8-chamber glass slides with freshly isolated murine CD8+ T cells (1.2×10^4 cells/well) in enriched E-DMEM phenol red-free media with IL-2 (80 U mL^−1), anti-mouse CD3e (2 μg mL^−1) and anti-mouse CD28 (5 μL mL^−1). After 48 h, T cell reinvigoration was performed by addition of IL-2 (1,000 U mL^−1) and incubation for 3 h. Probe H5 was used at 25 μM and Ac-IEPD-CHO at 50 μM with 1 h preincubation. After 1 h treatment at 37° C. with H5, cells were washed with media and imaged under a Leica TCS SP8 fluorescent confocal microscope under a 40× oil objective. Excitation wavelengths: 488 nm (H5), 561 nm (mKate). Images were analyzed with ImageJ.

Substance: IL-2: interleukin used to reinvigorate CD8+ T cells
- CD8+ T cells expressing inactive GzmB: over 80%
